What was measured:
[1] = system: MCP-1 production in BV2 murine microglial cells; experiment: MCP-1 ELISA, BV2 microglial cells after CSF-1 stimulation; format: cell-based, mouse; conditions: 3.125-400 nM, 100 ng/mL M-CSF 24 hours
Experimental: To compare the impact of a CSF-1R inhibitory compound and a deuterated CSF-1R inhibitory compound of this disclosure on cytokine/chemokine production following CSF-1 stimulation, the following experiments were conducted in BV2 murine microglial cells.
Two different passages of BV2 mouse microglial cells were plated in different 96-well plates to provide biological quadruplicates.
Both test compounds were prepared in diluted stock solution (10 mM) with culture media to get a 100 μM working solution and treated at 3.125 nM, 6.25 nM, 12.5 nM, 25 nM, 50 nM, 100 nM, 200 nM or 400 nM.
BV2 mouse microglia were suspended at a concentration of 5×10^5 cells/mL and 100 μL of this cell suspension was added to each well of a 96-well plate. Microglia cells were allowed to rest overnight at 37° C., 5% CO2. […] Cells were then stimulated with 100 ng/mL recombinant mouse M-CSF for 24 hours. […]
Culture supernatants were assayed with the Quantikine Mouse MCP-1 ELISA kit from R&D Systems. […] After incubation, the acid stop solution was added to each well, and the plate was read on the ELISA plate reader at 450 nm.
BV2 murine microglia were plated at 50,000 cells per well and rested overnight. […] Percent inhibition was calculated based upon unstimulated and stimulated controls and IC50 curves were generated.

primary murine microglia = experiment: Immunostaining of primary microglia (Iba1+ area, DAPI+ nuclei) after CSF-1 stimulation; format: cell-based, mouse
Experimental: Primary mouse microglia were suspended at a concentration of 5×10^5 cells/mL and 100 μL of this cell suspension was added to the inner 60 wells of three 96-well plates. Microglia cells were allowed to rest overnight at 37° C., 5% CO2. […] Cells were then stimulated with 100 ng/mL recombinant mouse CSF-1 for 24 hours. After stimulation, the culture supernatant was removed from each well and aliquoted into two different 96-well plates for subsequent ELISA assays. Plates were fixed with 4% PFA for future immunocytochemistry analysis. Following the stimulation, cells were fixed with 4% PFA for 20 minutes at room temperature. Cells were then rinsed in PBS, washed 3×5 minutes in 0.2% PBT (0.2% Triton X-100 in PBS) and blocked with 10% donkey serum/0.2% PBT for 1 hour at room temperature. […] The average value per field in each well (typically 6-9 fields per well as certain fields excluded due to staining artifact) was calculated for each technical triplicate and normalized to the average of the DMSO control wells. […] InCell imaging microsope and analysis software was used to quantify Iba1^+ area, and the number of DAPI^+ nuclei within the cultures. Ki67 could not be quantified because condensation during ICC cross-transferred Ibalantibody into Ki67 wells. […]

[2] = system: MCP-1 production in primary murine microglial cells; experiment: MCP-1 ELISA, primary mouse microglia after CSF-1 stimulation; format: cell-based; conditions: 3.125-400 nM, 100 ng/mL CSF-1 24 hours
Experimental: To compare the effect of two CSF-1R inhibitory compounds and one deuterated CSF-1R inhibitory compound of this disclosure on microglial cytokine/chemokine production following CSF-1 stimulation, the following experiment was conducted in primary murine microglial cells. All test compounds were prepared in diluted stock solution (10 mM) with culture media to get a 100 μM working solution and treated at 3.125 nM, 6.25 nM, 12.5 nM, 25 nM, 50 nM, 100 nM, 200 nM or 400 nM. Primary mouse microglia were suspended at a concentration of 5×10^5 cells/mL and 100 μL of this cell suspension was added to the inner 60 wells of three 96-well plates. Microglia cells were allowed to rest overnight at 37° C., 5% CO2. […] Cells were then stimulated with 100 ng/mL recombinant mouse CSF-1 for 24 hours. After stimulation, the culture supernatant was removed from each well and aliquoted into two different 96-well plates for subsequent ELISA assays. Plates were fixed with 4% PFA for future immunocytochemistry analysis. Culture supernatants were assayed with the Quantikine Mouse MCP-1 ELISA kit (R&D Systems, cat #SMJE00B). […] After incubation, the acid stop solution was added to each well, and the plate was read on the FlexStation3 Multi-Mode Microplate Reader (Molecular Devices, cat #Flex3) with SoftMax Pro Software at 450 nm. […] MCP-1 secretion was assessed after 24 hours utilizing R&D MCP-1 Elisa Kit. […]

How did the MCP-1 production [1] turn out when `[2H]c1nc2cccnc2n1Cc1cc(OC)c2c(c1)O[C@@H](C)[C@H](c1ccc(OC)nc1)O2` [Compound 6, 3-(((2S,3S)-8-methoxy-2-(6-methoxypyridin-3-yl)-3-methyl-2,3-dihydrobenzo[b][1,4]dioxin-6-yl)methyl)-3H-imidazo[4,5-b]pyridine-2-d] was run?
The MCP-1 production was “significantly reduced MCP-1 production in a concentration dependent manner”.

And the “Iba1+ area” value (primary murine microglia; CSF-1 stimulation increases Iba1+ area)?
The value was “significantly abrogated this effect in a concentration dependent manner”.

And the “number of cells (DAPI+ cells)” value (primary murine microglia; CSF-1 stimulation increases cell number)?
The value was “reduce this number in a concentration dependent manner”.

What about the MCP-1 production [2] of the same molecule?
Its MCP-1 production is “significantly reduced MCP-1 production in a concentration dependent manner”.

Which MCP-1 production [1] does the source give for `COc1ccc(C2Oc3c(OC)cc(Cn4cnc5cccnc54)cc3O[C@H]2C)cn1` (some centres unmarked) [Compound 24] here?
The MCP-1 production was “significantly reduced MCP-1 production in a concentration dependent manner”.

Source: patent US11530216B2, “Deuterated colony stimulating factor-1 receptor (CSF-1R) inhibitors” (Genzyme Corporation, priority 2020, dated 2022)
